Eleven molecules from US7179793B2, “Anti-hypertensive dietary supplement” (Ocean Nutrition Canada Limited, priority 2005, dated 2007) can be followed below.

By UniProt entry, the sequences of proteins in these tests, tags left out. Residues count along the entry.
UniProt P12821, 30-1306, species assumed: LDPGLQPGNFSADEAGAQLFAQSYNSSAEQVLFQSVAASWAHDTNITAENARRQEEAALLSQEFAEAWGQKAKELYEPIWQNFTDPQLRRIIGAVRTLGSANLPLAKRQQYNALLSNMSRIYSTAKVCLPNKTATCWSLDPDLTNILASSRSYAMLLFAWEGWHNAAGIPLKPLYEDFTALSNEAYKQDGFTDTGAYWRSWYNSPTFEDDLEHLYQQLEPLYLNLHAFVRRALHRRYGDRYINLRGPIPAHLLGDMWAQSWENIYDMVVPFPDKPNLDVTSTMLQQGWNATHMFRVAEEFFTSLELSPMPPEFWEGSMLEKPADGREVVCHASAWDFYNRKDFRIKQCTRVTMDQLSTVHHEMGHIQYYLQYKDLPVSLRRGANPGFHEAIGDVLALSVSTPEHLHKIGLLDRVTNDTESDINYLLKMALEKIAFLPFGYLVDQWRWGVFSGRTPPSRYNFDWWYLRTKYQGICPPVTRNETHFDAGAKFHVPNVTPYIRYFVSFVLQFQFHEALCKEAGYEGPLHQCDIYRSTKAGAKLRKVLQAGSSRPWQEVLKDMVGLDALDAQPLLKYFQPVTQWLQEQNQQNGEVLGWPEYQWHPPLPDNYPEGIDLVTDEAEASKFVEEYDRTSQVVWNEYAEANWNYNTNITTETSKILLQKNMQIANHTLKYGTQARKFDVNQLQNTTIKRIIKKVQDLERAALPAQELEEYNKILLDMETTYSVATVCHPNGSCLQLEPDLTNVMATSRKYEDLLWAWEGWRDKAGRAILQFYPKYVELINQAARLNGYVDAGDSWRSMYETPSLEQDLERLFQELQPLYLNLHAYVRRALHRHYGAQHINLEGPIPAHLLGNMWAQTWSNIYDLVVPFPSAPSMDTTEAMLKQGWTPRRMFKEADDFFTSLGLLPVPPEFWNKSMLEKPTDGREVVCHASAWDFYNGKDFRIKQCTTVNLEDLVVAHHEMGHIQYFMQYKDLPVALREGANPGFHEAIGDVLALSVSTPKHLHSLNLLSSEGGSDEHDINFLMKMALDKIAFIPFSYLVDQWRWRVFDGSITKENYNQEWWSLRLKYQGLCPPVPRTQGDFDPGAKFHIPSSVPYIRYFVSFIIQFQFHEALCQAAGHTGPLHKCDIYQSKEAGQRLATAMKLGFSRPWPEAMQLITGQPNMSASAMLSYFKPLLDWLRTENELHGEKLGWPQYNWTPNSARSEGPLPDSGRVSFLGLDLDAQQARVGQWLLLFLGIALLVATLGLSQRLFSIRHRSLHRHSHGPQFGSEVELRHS

The term IC50 denotes the concentration at which inhibition is half-maximal.

Several values for one entry are separate records, joined by “and”; a condition that tells them apart may be missing. Identical values can stand only once.

The target in this test is angiotensin I-converting enzyme (ACE) (Homo sapiens, UniProt P12821). Kind of test: In vitro ACE inhibitory activity (IC50), method of Holmquist et al. It is filed as biochemical. Conditions: synthesized tripeptides identified in fraction C. As to the method:
The activities after ethanol precipitation or ultrafiltration were 42.1 μg/mL and 41.1 μg/mL respectively.
Several ACE inhibitory peptides in the ultrafiltered salmon protein hydrolysate were identified. The ultrafiltered hydrolysate powder in water was applied on a gel filtration TSK-gel G300OPWXL column (7.8×300 mm, 6 μ, Tosoh). The column was eluted with 10% aqueous methanol at a flow rate of 0.8 mL/min. The elution was monitored by UV diode array detection collecting UV absorbance data from 192–450 nm. Individual fractions were lyophilized and their ACE inhibitory activities were measured.
This example compares the ACE inhibitory activity of salmon protein hydrolysates prepared using various proteases. Salmon frames were d in optimum hydrolysis conditions with various proteases by the process described in Example 1 and the ACE inhibitory activity of the hydrolysates was determined by the methods described in Example 1.
In the case of `CC[C@H](C)[C@H](N)C(=O)N[C@H](C(=O)N[C@@H](Cc1ccccc1)C(=O)O)[C@@H](C)CC` [Ile-Ile-Phe], it took 22.7 µM to reach half-maximal inhibition (IC50).

Turning to `CC(C)C[C@H](N)C(=O)N[C@@H](C)C(=O)N[C@@H](Cc1ccc(O)cc1)C(=O)O` [Leu-Ala-Tyr], the IC50 was 90 µM and ~90 µM.

Take `CC(C)C[C@H](N)C(=O)N[C@@H](C)C(=O)N[C@@H](Cc1ccccc1)C(=O)O` [Leu-Ala-Phe]: the half-inhibitory concentration (IC50) is 39.2 µM.

`C[C@H](NC(=O)[C@@H](N)Cc1ccc(O)cc1)C(=O)N[C@@H](Cc1ccc(O)cc1)C(=O)O` [Tyr-Ala-Tyr] showed an IC50 of 31.8 µM.

On to `CC(C)C[C@H](N)C(=O)N[C@H](C(=O)N[C@@H](Cc1ccccc1)C(=O)O)[C@@H](C)O` [Leu-Thr-Phe], for which the IC50 is 80.9 µM and ~80.9 µM.

In the case of `CC(C)[C@H](N)C(=O)N[C@@H](Cc1ccccc1)C(=O)N[C@@H](Cc1ccc(O)cc1)C(=O)O` [Val-Phe-Tyr], inhibition was half-maximal at 26 µM (IC50).

On to `N=C(N)NCCC[C@H](NC(=O)[C@H](CC(N)=O)NC(=O)[C@@H](N)Cc1ccc(O)cc1)C(=O)O` [Tyr-Asn-Arg], for which the IC50 is 121 µM and ~121 µM.

For the molecule `CC(C)C[C@H](NC(=O)[C@H](C)NC(=O)[C@@H](N)Cc1ccc(O)cc1)C(=O)O` [Tyr-Ala-Leu], the half-inhibitory concentration (IC50) was 154 µM and ~154 µM.

In the case of `CC[C@H](C)[C@H](N)C(=O)N[C@@H](C)C(=O)N[C@@H](Cc1ccc(O)cc1)C(=O)O` [Ile-Ala-Tyr], the IC50 is 157 µM and ~157 µM.

Regarding `CC[C@H](C)[C@H](N)C(=O)N[C@@H](C)C(=O)N[C@@H](Cc1c[nH]c2ccccc12)C(=O)O` [Ile-Ala-Trp], the IC50 is 9.52 µM and 9.5 µM.

For the molecule `CC(C)C[C@H](NC(=O)[C@@H](N)C(C)C)C(=O)N[C@@H](Cc1c[nH]c2ccccc12)C(=O)O` [Val-Leu-Trp], inhibition was half-maximal at 24 µM (IC50).
